Measurements taken from patent US10844018B2, “Pyridoxine derivative for treatment of epilepsy” (AO “TATKHIMFARMPREPARATY”, priority 2017, dated 2020).
“Also recorded” adds a separate entry of the source.

Test system: penicillin rat epilepsy model (high-amplitude electric discharges, HAED)
Assay: Penicillin model of epilepsy: effect on the electrical activity of the brain
Type: in vivo
Settings: sodium valproate 600 mg/kg ip, rats
Method: Experiments were carried out on male Wistar rats with a body weight of 180-250 g. Under isoflurane anesthesia (1.5%), surgical preparation for the experiment is performed. Urethane ([…]) is used for anesthesia during the experiment. Next, the animal is fixed in a stereotactic installation. 2×2 mm holes are drilled in the skulls of animals over symmetrical areas of the sensorimotor cortex of the brain and a 16-channel silicon-based probe (Neuronexus) is installed with a step of 100 μm between the recording electrodes to divert electrical activity from these areas. A silver chloride electrode, which serves as a combined ground electrode and a reference electrode, is introduced into the cerebellum or the visual cortex to a depth of 2-3 mm. To create a focus of epileptic activity in parallel to the somatosensory zones, 2×2 mm holes are drilled in the area of the visual cortex, into which 10 μl of a solution of sodium salt of benzylpenicillin are applied at a concentration of 40,000 IU/ml. […] The amplitude-frequency characteristics of epileptiform activity are evaluated. As a comparison substance, sodium valproate 600 mg/kg is used, which is administered ip in the presence of stable epileptiform activity. […] The significance of differences between populations is evaluated by the Mann-Whitney U-test. […]

Structure (SMILES): CCCC(CCC)C(=O)[O-].[Na+] [sodium valproate]
- suppression of HAED: does not completely suppress HAED; also recorded: does not lead to a complete suppression of HAED
